Target: T1, human PXR ligand binding domain (Homo sapiens, UniProt O75469)
T1 sequence (O75469 107-434): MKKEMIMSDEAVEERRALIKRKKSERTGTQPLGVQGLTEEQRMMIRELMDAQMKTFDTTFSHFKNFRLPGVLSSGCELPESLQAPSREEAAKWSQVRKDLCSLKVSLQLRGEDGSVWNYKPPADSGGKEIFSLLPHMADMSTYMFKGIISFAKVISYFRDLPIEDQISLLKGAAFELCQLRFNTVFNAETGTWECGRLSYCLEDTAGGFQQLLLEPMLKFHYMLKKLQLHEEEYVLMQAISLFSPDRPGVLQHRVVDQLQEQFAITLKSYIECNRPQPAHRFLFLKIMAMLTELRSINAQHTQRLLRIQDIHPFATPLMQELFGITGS
Assay: In vitro ligand displacement assay with [3H]SR12813
Conditions: 37.5 nM [3H]SR12813; 5 μM hyperforin, 30 μM Triol, 30 μM Tetrol; FIG. 4
Description: The amount of [^3H]SR12813 associated with human PXR is expressed in cpm.
To determine whether a molecule or compound interacts directly with a PXR or is a PXR ligand, an in vitro ligand displacement assay is commonly used. […] In the ligand displacement assay, the ligand binding domain of a PXR is synthesized or expressed and purified. A known PXR ligand is radio-labeled and incubated with the purified ligand binding domain of the PXR. A molecule or compound suspected to be a PXR ligand is then added into the incubated mixture. Radioactivity reading is taken using a scintillation counter. If the molecule or compound competes with the known PXR ligand for the ligand binding domain of the PXR, the molecule or compound is expected to displace some of the radio-labeled known PXR agonist and reduce the radioactivity reading. Accordingly, the reduction of radioactivity reading indicates whether the molecule or compound is a PXR ligand and the extent to which the molecule or compound competes with the known PXR ligand.
An in vitro ligand displacement assay was used to determine whether 5β-cholestane-3α, 7α, 12α-triol interacts directly with the ligand binding domain of PXR. Because radiolabeled [^3H]SR12813 are available for human PXR but not mouse PXR, human PXR was used to examine whether 5β-cholestane-3α, 7α, 12α-triol could compete for binding of human PXR to a tritiated SR12813. […]

hyperforin
displacement of [3H]SR12813 from human PXR (in words): effectively displaced

Reference: patent publication US20040019027A1, “Method of treating cerebrotendinous xanthomatosis” (priority 2002, published 2004)
